Test results reported in US6303749A, “Agouti and agouti-related peptide analogs” (Amgen Inc., priority 1999, dated 2001).
Several values for one entry are separate records, joined by “and”; a condition that tells them apart may be missing. Equal entries are not always repeated. Blank lines part the entries; values can stand above or below the molecule they belong to. Bridge positions count the residues as written; N and C are the ends. Ends that are not written are not given here.

Columns and labels:
[1] = molecular target: T1, human melanocortin-3 (MC-3) receptors (Homo sapiens, UniProt P41968); assay: Melanocortin receptor binding assay, 125I-NDP-alpha-MSH competition, MC-3; details: HEK 293 cell membranes; about […] 125I-NDP-α-MSH; 180 minutes at 25 C; read-out: hMC3 IC50 (nM) 125I NDP-MSH
T1 construct: expressed in transfected cells; membrane fraction used
Experimental: Human embryonic kidney (HEK) 293 cells stably expressing human melanocortin-3 (MC-3) or human melanocortin-4 (MC-4) receptors were used for ^125 I-[Nle4,dPhe7]α-melanocte stimulating hormone (NDP-α-MSH) and ^125 I-AGRP radioligand binding studies.
For ^125 I-NDP-α-MSH binding, cells were collected in phosphate buffered saline (PBS) and homogenized in Buffer A containing about 25 mM HEPES and about 0.32 M sucrose (pH 7.4), after which the homogenate was spun at 48,000×g for 12 minutes. The resulting pellet, which contained the cell membrane fraction, was resuspended in Buffer B containing about 25 mM HEPES, Modified Eagle's medium (without phenol red), about 0.1 percent bovine serum albumin (BSA), about 0.1 mg/ml soybean trypsin inhibitor (STI) and about 0.1 mg/ml 4-(2-aminoethyl)-benzenesulfonyl fluoride (AEBSF) (pH 7.4), and spun at 48,000×g for 12 minutes. This step was repeated one additional time, and the final pellet was resuspended in Buffer B to a concentration of about 4 mg wet weight of cell membrane per ml.
The binding reaction was initiated by the addition of cell membrane extract (about 50 μl) to wells containing about 0.15 nM ^125 I-NDP-α-MSH (2000 Ci/mmole, Amersham, Arlington Heights, Ill.) and varying concentrations of unlabeled AGRP/ASP peptides. The final assay volume was 100 μl. The reaction mixture was incubated for about 180 minutes at 25 C. and the reaction was terminated by filtration over Unifilter 96 glass fiber filter plates that had been pre-soaked in 0.1 percent polyethylenimine (PEI). Filters were rinsed with ice-cold water, followed by the addition of about 37 μl of Packard MicroScint to each filter well. Radioactivity was quantified using a Packard TopCount. Each concentration of unlabeled AGRP/ASP peptide was tested in triplicate.

[2] = molecular target: T2, human melanocortin-4 (MC-4) receptors (Homo sapiens, UniProt P32245); assay type: binding; details: HEK 293 cell membranes; about […] 125I-NDP-α-MSH; 180 minutes at 25 C; read-out: hMC4 IC50 (nM) 125I NDP-MSH
T2 construct: expressed in transfected cells; membrane fraction used

[3] = assay type: binding, human; details: Table II; HEK 293 cell membranes; 125I-AGRP 1.10 nM; read-out: hMC3 IC50 (nM) 125I-AGRP
[4] = molecular target: T1, human melanocortin-3 (MC-3) receptors; assay: Melanocortin receptor binding assay, 125I-AGRP competition, MC-3; details: Table II; HEK 293 cell membranes; 125I-AGRP 1.10 nM; read-out: hMC3 IC50 (nM) 125I-AGRP
[5] = molecular target: T3, human melanocortin-4 (MC-4) receptor (human, UniProt P32245); assay: displacement of 125I-AGRP, membranes of HEK 293 cells with hMC4 (value column 2; its head prints hMC3)
[6] = molecular target: T3, human melanocortin-4 (MC-4) receptor; assay: displacement of 125I-NDP-alpha-MSH, membranes of HEK 293 cells with hMC4 (value column 1)
[7] = molecular target: human melanocortin-3 (MC-3) receptor (human, UniProt P41968); assay: displacement of 125I-NDP-alpha-MSH, membranes of HEK 293 cells with hMC3 (value column 3)

Molecule: Ac-Nle-Asp-His-dPhe-Arg-Trp-Lys [MTII, reference compound]
IC50 [1]: 20 nM

Molecule: Cys-Abu-Asp-Pro-Abu-Ala-Thr-Abu-Tyr-Cys-Arg-Phe-Phe-Asn-Ala-Phe-Cys-Tyr-Cys-Arg-Lys-Leu [SEQ ID NO:12]
IC50 [2]: 114 nM
IC50 [3]: 13 nM
IC50 [1]: 650 nM
IC50 [4]: 101 nM

Molecule: alpha-MSH [reference compound]
IC50 [1]: 255 nM

IC50 [5]: 636 nM
B1: peptide of SEQ ID NO:6 (peptide)
peptide: CRFFNAFC
modifications: disulfide 1-8 (inferred)

IC50 [6]: 57 nM and 65 nM and 49 nM
B2: Mkd5-AGRP (ligand)
chain: APMEGIRRPDQALLPELPGLGLRAPLKKTTAEQAEEDLLQEAQALAEVLDLQDREPRSSRRCVRLHESCLGQQVPCCDPCATCYCRFFNAFCYCRKLGTAMNPCSRT

IC50 [5]: 497 nM
B3: peptide of SEQ ID NO:7 (peptide)
peptide: CRFFGSAC
modifications: disulfide 1-8 (inferred)

IC50 [7]: 255 nM
B4: alpha-MSH (ligand)
peptide: SYSMEHFRWGKPV
